The text below walks through data of PubChem BioAssay AID633 (Emory University Molecular Libraries Screening Center, 2007).

Chains of the proteins cited; added tags and fusions are not shown.
UniProt Q92731, whole entry, looked up: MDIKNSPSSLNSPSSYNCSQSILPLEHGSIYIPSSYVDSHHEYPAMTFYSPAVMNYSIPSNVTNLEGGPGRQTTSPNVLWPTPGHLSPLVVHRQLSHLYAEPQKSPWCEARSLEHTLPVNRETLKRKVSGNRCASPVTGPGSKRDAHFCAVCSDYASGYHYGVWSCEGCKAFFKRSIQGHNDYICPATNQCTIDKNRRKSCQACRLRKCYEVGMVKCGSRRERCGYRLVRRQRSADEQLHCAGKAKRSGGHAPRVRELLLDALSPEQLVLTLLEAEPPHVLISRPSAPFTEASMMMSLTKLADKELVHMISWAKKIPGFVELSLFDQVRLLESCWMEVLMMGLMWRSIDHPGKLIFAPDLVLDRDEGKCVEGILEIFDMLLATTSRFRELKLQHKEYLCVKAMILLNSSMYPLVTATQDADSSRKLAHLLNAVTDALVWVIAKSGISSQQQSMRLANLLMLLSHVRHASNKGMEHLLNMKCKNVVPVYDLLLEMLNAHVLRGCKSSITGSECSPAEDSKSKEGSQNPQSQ

Each structure is given as a SMILES string. This is a selection; strong and weak results do not stand in their true shares. Activity calls are given as the source filed them.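 The calls were made as follows: active = compounds whose percent inhibition of the receptor-coactivator binding signal exceeds about 50% in the single-dose screen (limit read from the data); inactive = the rest.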

The experiment has as its target Estrogen receptor beta (Homo sapiens) (UniProt Q92731). The experiment can be described thus: inhibitors of ERβ-SRC1 coactivator interaction, primary screen, biochemical, TR-FRET, ERβ LBD, SRC-1 peptide (AID 633).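 Also: 0% = receptor plus peptide wells without compound and 100% = peptide-only wells.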 To be noted: TR-FRET ER-beta LBD / SRC1-Cy5 peptide binding; at 25.6 µM; active compounds read high. (TR-FRET usually uses a lanthanide donor and a delayed reading to cut background.)
One may read the inhibition as the drop in the measured response relative to a control, in per cent. On to `CCc1nc2c(n1)c1c(non1O)c1c2no[n+]1[O-]`, for which the inhibition is inactive: -1.62%. Regarding `O=[N+]([O-])c1cccc2n[nH]nc12`, the inhibition was inactive: 10.4%. In the case of `CN1CCCC(OC(=O)C(c2ccccc2)c2ccccc2)C1` (stereo unspecified), the inhibition was inactive: -5.06%. In the case of `Cc1c2non([O-])c-2c(C)[n+](=O)[n+]1[O-]`, the inhibition was inactive: 4.8%. As for `Oc1ccccc1CNc1ccccn1`, the inhibition was inactive: 1.39%. For the compound `CCOP(=O)(Nc1ccccc1)OCC`, the inhibition is inactive: -2.57%. With `COC(=O)c1cc2c(s1)N=C(c1ccccc1)N(C)P2(=O)N1CCOCC1` (stereo unspecified), the inhibition was inactive: -21%. Next, `O=P1(Nc2nc3ccc(Cl)cc3s2)COc2ccccc2O1` (stereo unspecified): inactive: 5.46%; `O=P(Nc1nccs1)(c1ccccc1)c1ccccc1`: inactive: 3.91%; `c1nnnn1CCn1cnnn1`: inactive: -3.83%.

Take `O=C(OC1CN2CCC1CC2)c1cccc(Cl)c1` (stereo unspecified): the inhibition was inactive: -4.76%.

Consider `Cc1nn(-c2ccccc2)c2c1P(=O)(N1CCOCC1)N(C)C(c1ccccc1)=N2` (stereo unspecified), for which the inhibition was inactive: -1.18%. As for `O=P1(Nc2ncccn2)COc2ccccc2OC1`, the inhibition was inactive: 3.28%. Next, `Cc1ccc(OCC(=O)OC2CN3CCC2CC3)cc1` (stereo unspecified): inactive: -2.85%; `O=P1(Nc2ccc(Br)cn2)COc2ccccc2OC1`: inactive: 9.18%; `O=P1(Nc2ccccn2)COc2ccccc2OC1`: inactive: 1.57%.

Regarding `Clc1n[nH]nc1-c1nn[nH][15n]1`, the inhibition is inactive: 5.02%. Next, `CC1(CBr)Cn2c(nc3ccccc3c2=O)S1` (stereo unspecified): inactive: 18.4%. For `Cc1cccc(OCC(=O)OC2CN3CCC2CC3)c1` (stereo unspecified), the inhibition is inactive: 1.29%. On to `CCOP1(=S)c2c(C)nn(CCC#N)c2N=C(c2ccccc2F)N1C` (stereo unspecified), for which the inhibition is inactive: 0.11%. With `CCOP1(=S)c2c(C)nn(CCC#N)c2N=C(c2ccc(F)cc2)N1C` (stereo unspecified), the inhibition was inactive: -1.13%. With `ClCCSc1nnc(-c2cccnc2)o1`, the inhibition was inactive: 17.6%. Next, `O=C(OC1CN2CCC1CC2)C12CC3CC(CC(C3)C1)C2` (stereo unspecified): inactive: 5.61%. `COP1(=S)c2c(C)nn(CCC#N)c2N=C(c2ccc(F)cc2)N1C` (stereo unspecified): the inhibition was inactive: -4.93%. Regarding `O=C(COc1ccccc1)OC1CN2CCC1CC2` (stereo unspecified), the inhibition is inactive: 5.69%. `CCC(C)N(CC(C)C)C(=S)SC(NC(C)=O)C(Cl)(Cl)Cl` (stereo unspecified): the inhibition is inactive: -9.6%.
